The values that follow come from US6908919B2, “Substituted polycyclic aryl and heteroaryl pyrazinones useful for selective inhibition of the coagulation cascade” (Pharmacia Corporation, priority 1999, dated 2005).

Amino acid sequences for entries named in this document (tags omitted). Residues count along the entry.
UniProt P08709, 61-212 limits assumed: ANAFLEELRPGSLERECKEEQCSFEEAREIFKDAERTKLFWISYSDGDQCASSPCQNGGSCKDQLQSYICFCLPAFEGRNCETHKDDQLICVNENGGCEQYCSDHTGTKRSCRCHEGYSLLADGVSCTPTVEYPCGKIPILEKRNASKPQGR
UniProt P08709, 213-466 limits assumed: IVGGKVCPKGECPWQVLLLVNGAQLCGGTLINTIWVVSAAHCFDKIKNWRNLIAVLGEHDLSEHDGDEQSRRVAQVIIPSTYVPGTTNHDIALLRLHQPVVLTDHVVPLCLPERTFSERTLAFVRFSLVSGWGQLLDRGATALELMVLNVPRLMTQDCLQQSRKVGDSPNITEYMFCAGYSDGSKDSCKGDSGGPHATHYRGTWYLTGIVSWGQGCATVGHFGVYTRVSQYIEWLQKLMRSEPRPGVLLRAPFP
UniProt P00742, 41-179 limits assumed: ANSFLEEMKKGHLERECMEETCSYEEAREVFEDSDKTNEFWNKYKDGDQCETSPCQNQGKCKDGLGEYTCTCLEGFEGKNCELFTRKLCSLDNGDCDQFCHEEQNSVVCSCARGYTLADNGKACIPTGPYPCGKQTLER
UniProt P00742, 235-488 limits assumed: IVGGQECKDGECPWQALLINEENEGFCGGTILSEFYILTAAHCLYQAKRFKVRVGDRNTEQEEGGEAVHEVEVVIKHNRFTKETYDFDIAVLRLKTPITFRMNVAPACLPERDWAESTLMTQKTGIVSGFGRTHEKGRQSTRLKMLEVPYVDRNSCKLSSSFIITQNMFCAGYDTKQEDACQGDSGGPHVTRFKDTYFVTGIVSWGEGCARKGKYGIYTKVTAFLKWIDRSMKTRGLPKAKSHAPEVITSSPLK
UniProt P00761, 9-231 limits assumed: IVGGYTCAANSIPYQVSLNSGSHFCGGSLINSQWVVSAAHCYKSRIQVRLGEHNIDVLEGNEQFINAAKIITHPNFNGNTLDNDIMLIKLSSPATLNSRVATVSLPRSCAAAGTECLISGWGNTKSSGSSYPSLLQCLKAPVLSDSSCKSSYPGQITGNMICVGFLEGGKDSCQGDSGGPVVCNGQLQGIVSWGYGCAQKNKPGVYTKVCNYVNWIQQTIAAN
UniProt P13726, 33-251 partner limits assumed: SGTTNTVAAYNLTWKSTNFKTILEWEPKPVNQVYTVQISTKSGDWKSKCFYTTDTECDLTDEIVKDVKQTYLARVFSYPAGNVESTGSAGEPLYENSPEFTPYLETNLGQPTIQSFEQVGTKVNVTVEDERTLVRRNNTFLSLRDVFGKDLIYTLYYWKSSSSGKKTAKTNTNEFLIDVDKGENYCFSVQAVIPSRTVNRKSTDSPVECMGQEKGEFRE

For test [1], the target named is recombinant soluble tissue factor and recombinant human factor VIIa (TF-VIIa) (Homo sapiens, UniProt P08709). The experiment in a line: TF-VIIa Assay. It is filed as biochemical.
Test [2] concerns the target Human factor Xa (Homo sapiens, UniProt P00742). The experiment in a line: Xa Assay. It is filed as biochemical. To be noted: for % Inhibition Factor Xa at 100 μM: at 100 μM inhibitor; for IC50: read-out: IC50 Factor Xa.
Test [3] addresses Trypsin (type IX from porcine pancreas) (Sus scrofa, UniProt P00761). The experiment in a line: Trypsin Assay. The settings on record: read-out: IC50 Trpysin II.
The mark [4] stands for this setting: read-out: IC50 TF-VIIa, cell printed 'at 100 μM' without %, cell adds 'at 100 μM'.

Structures are written as SMILES. Like-named read-outs stand apart in the source and are kept apart here.

For the molecule `N=C(N)c1ccc(CNC(=O)Cn2c(-c3cccc(N)c3)c(Cl)nc(NCCC(=O)O)c2=O)cc1`, the IC50 in test [1] (setting [4]) stood at 210 nM. Besides, in test [2], the “% Inhibition Factor Xa at 100 μM” value is reported as 27% at 100 μM.
`COc1ccccc1-c1c(Cl)nc(NCCc2cccc(Cl)c2)c(=O)n1CC(=O)NCc1ccc(C(=N)N)cc1`: the IC50 in test [1] (read-out: IC50 TF-VIIa) is 1800 nM; in test [3], 1400 nM; in test [2] it was greater than 30000 nM.
Consider `N=C(N)c1ccc(CNC(=O)Cn2c(-c3ccccc3)c(Cl)nc(NCC34CC5CC(CC(C5)C3)C4)c2=O)cc1`, for which the 50% inhibitory concentration (IC50) in test [1] (read-out: IC50 TF-VIIa, cells without % sign) came to 5000 nM; in test [3] (cells without % sign) it was 200 nM.
On to `N=C(N)c1ccc(CNC(=O)Cn2c(-c3cccc(N)c3)c(Cl)nc(NCC(=O)O)c2=O)cc1`, for which the half-maximal inhibitory concentration (IC50) in test [1] (setting [4]) was 90 nM. Besides, the “% Inhibition Factor Xa at 100 μM” value in test [2] is recorded as 22% at 100 μM.
As for `N=C(N)c1ccc(CNC(=O)Cn2c(-c3ccc(F)cc3)c(Cl)nc(NCCc3cccc(Cl)c3)c2=O)cc1`, the IC50 in test [1] (read-out: IC50 TF-VIIa) was 6800 nM; in test [3], 1100 nM; in test [2], greater than 30000 nM.
Turning to `N=C(N)c1ccc(CNC(=O)Cn2c(-c3cccc(N)c3)c(Cl)nc(NC(CC(=O)O)c3ccccc3)c2=O)cc1` (stereo not shown), in test [2], the “% Inhibition Factor Xa at 100 μM” value stood at 21% at 100 μM.
For `N=C(N)c1ccc(CNC(=O)Cn2c(-c3cccs3)c(Cl)nc(NCCc3cccc(Cl)c3)c2=O)cc1`, the IC50 in test [1] (read-out: IC50 TF-VIIa) is 1800 nM; in test [3], 1400 nM; in test [2], greater than 30000 nM.
Regarding `N=C(N)c1ccc(CNC(=O)Cn2c(-c3ccccc3C(F)(F)F)c(Cl)nc(NCCc3cccc(Cl)c3)c2=O)cc1`, the IC50 in test [1] (read-out: IC50 TF-VIIa) was 4100 nM; in test [3], 4100 nM; in test [2], greater than 30000 nM.
In the case of `N=C(N)c1ccc(CNC(=O)Cn2c(-c3cccc(F)c3)c(Cl)nc(NCCc3cccc(Cl)c3)c2=O)cc1`, the figures for the IC50 in test [1] (read-out: IC50 TF-VIIa), in test [3] and in test [2] were 2900 nM, 1200 nM and greater than 30000 nM, respectively.
On to `N=C(N)c1ccc(CNC(=O)Cn2c(-c3cccc(C(F)(F)F)c3)c(Cl)nc(NCCc3cccc(Cl)c3)c2=O)cc1`, for which the IC50 in test [1] (read-out: IC50 TF-VIIa) is 3600 nM; in test [3] it was 1600 nM; in test [2], greater than 30000 nM.
In the case of `N=C(N)c1ccc(CNC(=O)Cn2c(-c3cccc(Br)c3)c(Cl)nc(NCCc3cccc(Cl)c3)c2=O)cc1`, the values for the IC50 in test [1] (read-out: IC50 TF-VIIa), in test [3] and in test [2] were 4800 nM, 1300 nM and greater than 30000 nM, respectively.
Take `N=C(N)c1ccc(CNC(=O)Cn2c(-c3sccc3Br)c(Cl)nc(NCCc3cccc(Cl)c3)c2=O)cc1`: the half-inhibitory concentration (IC50) is 1600 nM in test [1] (read-out: IC50 TF-VIIa), 2300 nM in test [3] and greater than 30000 nM in test [2].
Take `COc1cccc(-c2c(Cl)nc(NCCc3cccc(Cl)c3)c(=O)n2CC(=O)NCc2ccc(C(=N)N)cc2)c1`: the IC50 in test [1] (read-out: IC50 TF-VIIa) was 2600 nM; in test [3], 1000 nM; in test [2] it was greater than 30000 nM.
Taken in the same sequence, the figures for `N=C(N)c1ccc(CNC(=O)Cn2c(-c3ccccc3F)c(Cl)nc(NCCc3cccc(Cl)c3)c2=O)cc1` were 3100 nM, 1800 nM and greater than 30000 nM.
With `N=C(N)c1ccc(CNC(=O)Cn2c(-c3ccc(C(F)(F)F)cc3)c(Cl)nc(NCCc3cccc(Cl)c3)c2=O)cc1`, the IC50 is 1400 nM in test [3] and greater than 30000 nM in test [2].
With `N=C(N)c1ccc(CNC(=O)Cn2c(-c3ccccc3)c(Cl)nc(NC34CC5CC(CC(C5)C3)C4)c2=O)cc1`, the IC50 in test [3] (cells without % sign) is 300 nM.
